{"source": "patent US11579152B2", "about": "“Engineered hERG channel proteins, vesicles and methods of identifying small molecule pharmacological agents” (priority 2016, dated 2023)", "target": "hERG channel (Homo sapiens, UniProt Q12809, DEL141-380/DEL871-1005)"}
{"substance": "Amoxillin", "values": [{"measurement": "Percentage inhibition (%) at 100 μM", "value": "−2.6 ± 9.1", "unit": "%"}]}
